Tests used:
Assay type in all cases: biochemical
Myc-tagged Syk kinase = target: T1, Myc-tagged Syk kinase (Mus musculus, UniProt P48025); assay: Inhibition of GST-band III phosphorylation by Syk; conditions: GST-band III (3.4 μM) as substrate; FIG. 1F
T1 construct: made in house; host or cells: COS-7 cells (plasmid pEBM-Syk-myc)
Method: (§1) FIG. 1F: Myc-tagged Syk kinase was expressed and purified from COS-7 cells. GST-band III (Km concentration; 0.7 μM for ZAP-70 and 3.4 μM for Syk) was phosphorylated by ZAP-70 (closed circle) or myc-tagged Syk (open circle) in the presence of the indicated amount of peptide 4 for 10 min at 30° C. Phosphorylated tubulin, myelin basic protein, and GST-band III were separated on SDS-PAGE, visualized by autoradiography and quantitated as described in the legend for FIG. 1B. Error bars represent the standard error from 3-4 independent experiments.
(§2) Synthetic peptides, tubulin, or GST-band III (construct kindly provided by A. Weiss, University of California, San Francisco) (Zhao and Weiss, 1996) were phosphorylated by ZAP-70-GST-fused protein in the presence or absence of the indicated amount of inhibitory peptides in the kinase buffer (10 mM MnCl2, 50 mM Tris [pH 7.4], 1 mM DTT), 100 μM ATP, and 5 μCi [γ-^32P]ATP for 5 min (or 10 min for GST-band-III) at 30° C. The amount of radioactivity incorporated into substrate peptide was determined using the phosphocellulose assay. Lck-GST-fused protein was purified from Sf9 cells. […] Phosphorylated tubulin, GST-band III, and myelin basic protein were separated on SDS-PAGE, visualized by autoradiography, and quantitated using a molecular imager (Bio-Rad, Hercules, Calif.).

The chains behind the UniProt entries cited, without tags or fusion partners. Where a name states a change or a piece, a line headed by the entry shows the natural chain unless it says otherwise.
UniProt P48025, whole entry: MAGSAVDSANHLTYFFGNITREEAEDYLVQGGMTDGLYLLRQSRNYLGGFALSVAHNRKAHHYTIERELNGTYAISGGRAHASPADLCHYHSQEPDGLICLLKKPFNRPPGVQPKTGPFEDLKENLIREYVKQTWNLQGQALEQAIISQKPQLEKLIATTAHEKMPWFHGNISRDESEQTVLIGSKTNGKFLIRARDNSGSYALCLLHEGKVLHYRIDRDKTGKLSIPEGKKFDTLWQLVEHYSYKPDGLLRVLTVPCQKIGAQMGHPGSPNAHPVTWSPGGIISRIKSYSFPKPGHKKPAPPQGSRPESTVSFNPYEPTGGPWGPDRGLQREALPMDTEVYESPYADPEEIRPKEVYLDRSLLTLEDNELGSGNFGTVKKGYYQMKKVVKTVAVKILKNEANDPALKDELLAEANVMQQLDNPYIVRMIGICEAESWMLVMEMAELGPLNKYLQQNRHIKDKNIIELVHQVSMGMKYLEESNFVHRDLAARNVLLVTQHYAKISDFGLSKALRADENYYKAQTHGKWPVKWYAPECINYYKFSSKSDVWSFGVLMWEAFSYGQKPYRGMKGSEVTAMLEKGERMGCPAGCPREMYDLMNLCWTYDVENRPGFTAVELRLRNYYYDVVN
UniProt P06239: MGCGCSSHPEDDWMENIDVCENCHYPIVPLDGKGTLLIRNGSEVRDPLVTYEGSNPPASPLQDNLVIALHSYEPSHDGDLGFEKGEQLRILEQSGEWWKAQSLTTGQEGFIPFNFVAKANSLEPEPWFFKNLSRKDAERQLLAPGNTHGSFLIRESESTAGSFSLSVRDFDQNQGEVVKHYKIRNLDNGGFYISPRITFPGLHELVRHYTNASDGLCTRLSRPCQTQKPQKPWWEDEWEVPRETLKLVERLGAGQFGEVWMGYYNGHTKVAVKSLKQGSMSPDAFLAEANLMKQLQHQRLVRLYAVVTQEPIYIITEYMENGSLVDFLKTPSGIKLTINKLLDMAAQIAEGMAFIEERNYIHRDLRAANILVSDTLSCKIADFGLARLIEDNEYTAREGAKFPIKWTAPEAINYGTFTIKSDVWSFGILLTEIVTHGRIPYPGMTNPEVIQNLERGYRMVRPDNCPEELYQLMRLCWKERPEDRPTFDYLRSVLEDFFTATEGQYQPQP

ZAP-70 [1] = target: T2, ZAP-70 (Homo sapiens, UniProt P43403); assay: Inhibition of tubulin phosphorylation by ZAP-70; conditions: at concentrations below 20 μM; tubulin (5 μM) as substrate; FIG. 1D
T2 construct: made in house; host or cells: Sf9 cells (baculovirus)
T2 sequence (P43403 1-619): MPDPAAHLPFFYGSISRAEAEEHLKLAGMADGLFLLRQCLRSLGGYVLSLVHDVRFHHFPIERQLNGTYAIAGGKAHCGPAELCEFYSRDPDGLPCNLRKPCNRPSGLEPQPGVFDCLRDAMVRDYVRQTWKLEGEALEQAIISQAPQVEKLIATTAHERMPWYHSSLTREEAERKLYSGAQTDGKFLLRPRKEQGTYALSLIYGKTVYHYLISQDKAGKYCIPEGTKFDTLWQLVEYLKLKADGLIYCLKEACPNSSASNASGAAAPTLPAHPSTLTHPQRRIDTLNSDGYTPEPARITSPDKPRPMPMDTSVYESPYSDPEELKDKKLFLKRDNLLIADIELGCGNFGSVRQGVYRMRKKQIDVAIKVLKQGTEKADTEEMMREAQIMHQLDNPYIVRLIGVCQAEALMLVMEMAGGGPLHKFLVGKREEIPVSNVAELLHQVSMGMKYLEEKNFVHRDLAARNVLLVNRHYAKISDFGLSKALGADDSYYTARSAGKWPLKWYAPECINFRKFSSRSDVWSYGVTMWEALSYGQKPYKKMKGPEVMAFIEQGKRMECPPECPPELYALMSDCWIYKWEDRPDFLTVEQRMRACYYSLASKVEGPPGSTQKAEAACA
Method: FIG. 1A: A glutathione-S-transferase chimera of ZAP-70 was purified from Sf9 cells and assayed for its ability to phosphorylate tubulin in the presence of 0, 50, or 100 μM of peptide 1 (SEQ ID NO: 5) or peptide 2 (SEQ ID NO: 6). The assay was carried out in kinase buffer (5 mM MnCl2, 5 mM MgCl2, 25 mM Tris [pH 7.4]), 50 μM ATP, and […] [γ-^32P]ATP for 5 min at 30° C. ^32P-phosphorylated tubulin was separated on SDS-PAGE, visualized by autoradiography (inset), and quantitated using a molecular imager (Bio-Rad).
FIG. 1D: The ZAP-70 Tyr-kinase assay was as described above, using tubulin (5 μM) as substrate. […]
as §2, with “assay.” for “assay. Lck-GST-fused protein was purified from Sf9 cells.”

ZAP-70 [2] = target: T2, ZAP-70; assay: Inhibition of GST-band III phosphorylation by ZAP-70; conditions: GST-band III (0.7 μM) as substrate; dose-dependent; FIG. 1F
Method: as §1, §2

ZAP-70 [3] = target: T2, ZAP-70; assay: Inhibition of ZAP-70 phosphorylation of peptide 1 (phosphocellulose assay, Lineweaver-Burke plot); conditions: at 10 μM inhibitor; peptide 1 (10 μM) as substrate; FIG. 1B
Method: FIG. 1B: ZAP-70 was also assayed for its ability to phosphorylate peptide 1 (10 μM) in the presence of 0, 10, or 50 μM of peptide 4 (SEQ ID NO: 9) or peptide 5 (SEQ ID NO: 10). Peptide phosphorylation was determined by spotting the reaction mixture on phosphocellulose and washing away the ^32P-ATP with a phosphate buffer. The polylysine tail of peptide 1 facilitates retention on the phosphocellulose (Songyang et al., 1996). The data are presented as the percentage of the activity present in the absence of inhibitory peptides. […]
as §2, with “assay.” for “assay. Lck-GST-fused protein was purified from Sf9 cells.”

Lck-GST-fused protein = target: T3, Lck-GST-fused protein (Homo sapiens, UniProt P06239); assay: Inhibition of myelin basic protein phosphorylation by Lck; conditions: even at 100 μM; myelin basic protein (5 μM) as substrate; FIG. 1E
T3 construct: made in house; host or cells: Sf9 cells
Method: FIG. 1E: A glutathione-S-transferase chimera of Lck was purified from Sf9 cells and assayed for the ability to phosphorylate myelin basic protein (5 μM) in the presence or absence of the same three peptides as used in FIG. 1D. The assay was carried out for 5 min at 30° C.
as §2, with “cells. Myelin basic protein was phosphorylated by Lck-GST-fused protein in the presence or absence of inhibitory peptides in the kinase buffer (5 mM MnCl2, 5 mM MgCl2, 25 mM Tris [pH 7.4]), 50 μM ATP, and 5 μCi [γ-^32P]ATP for 5 min at 30° C.” for “cells.”

CC[C@H](C)[C@H](NC(=O)[C@H](CC(C)C)NC(=O)[C@@H](N)CCCCN)C(=O)N[C@@H](CC(C)C)C(=O)N[C@@H](Cc1ccccc1)C(=O)N[C@@H](CC(C)C)C(=O)N[C@@H](CC(C)C)C(=O)N[C@@H](CC(C)C)C(=O)N[C@@H](CC(C)C)C(=O)O [peptide 4]
inhibition of Syk activity (in words) (Myc-tagged Syk kinase): not Syk
inhibition of ZAP-70 (ZAP-70 [1]): more than 50%
inhibition of ZAP-70 activity (in words) (ZAP-70 [2]): significantly inhibited
inhibition at 10 µM (ZAP-70 [3]): 70%
effect on Lck Tyr kinase activity (in words) (Lck-GST-fused protein): only a modest effect
